Results from patent publication US4450115A, “Amino-alcohol derivatives” (Kyowa Hakko Kogyo Co., Ltd., priority 1979, dated 1984).

Assay: in vivo
Conditions: mouse, Table 6, oral, male dd-strain mice
Description: The test compounds were orally administered to male dd-strain mice weighing 20-25 g.

For CC(CCc1ccccc1)NCC(O)c1ccc(O)c(C(N)=O)c1 (stereo not shown) [Reference compound, 5-[1-hydroxy-2-(1-methyl-3-phenylpropyl)aminoethyl] salicylamide hydrochloride, reference compound], the LD50 was 760 to 1000 mg/kg.

Counter-ions that a name gives are not always drawn.
